Measured values from patent EP3954371B1, “ANTI-ACETYLCHOLINESTERASE ACTIVE COMPOSITION IN CAULIS MAHONIAE AND SCREENING METHOD THEREFOR AND APPLICATION THEREOF” (Shenzhen Institute for Drug Control (Shenzhen Testing …, priority 2019, dated 2021).
pIC50: −log10 of the molar value. Where two headings read alike, the source gives them in different places.

The chains behind the UniProt entries cited, without tags or fusion partners. Residues count along the entry.
UniProt P22303, 32-614: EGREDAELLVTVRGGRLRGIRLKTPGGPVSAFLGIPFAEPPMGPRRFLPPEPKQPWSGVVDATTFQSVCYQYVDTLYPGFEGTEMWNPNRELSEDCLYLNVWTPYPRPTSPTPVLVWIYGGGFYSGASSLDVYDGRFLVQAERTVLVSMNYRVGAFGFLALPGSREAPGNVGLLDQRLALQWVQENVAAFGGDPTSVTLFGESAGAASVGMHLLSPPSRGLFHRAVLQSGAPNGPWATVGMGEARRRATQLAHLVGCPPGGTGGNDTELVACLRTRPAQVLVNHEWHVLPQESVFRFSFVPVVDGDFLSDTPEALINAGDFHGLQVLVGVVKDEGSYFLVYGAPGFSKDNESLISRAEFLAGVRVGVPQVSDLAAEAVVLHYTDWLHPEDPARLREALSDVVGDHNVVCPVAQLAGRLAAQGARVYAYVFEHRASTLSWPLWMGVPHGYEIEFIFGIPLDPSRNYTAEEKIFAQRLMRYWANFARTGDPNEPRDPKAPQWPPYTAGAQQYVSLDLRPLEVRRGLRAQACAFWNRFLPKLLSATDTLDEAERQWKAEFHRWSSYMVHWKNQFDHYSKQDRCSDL

Experiments:
AChE [1] = target: T1, AChE (Homo sapiens, UniProt P22303); assay type: biochemical
T1 construct: purchased Sigma
Procedure: For the reaction system, see Table 3. The specific steps are described below.
140 µL of phosphate buffer (PBS, 0.1 mol/L, pH = 7.4), 20 µL of AChE (0.303 U/mL) and 20 µL of sample solution were added in sequence to a 96-well plate, mixed evenly, and added with 10 µL of DTNB (3.3 mM) and 10 µL of acetylthiocholine iodide (ATCI) (15 mM). They were mixed evenly and incubated for 10 min at 37 °C, then measured absorbance at 405 nm.
The sample was replaced with PBS in a blank enzyme group. The sample was replaced with PBS in a blank enzyme-free group. The enzyme solution was replaced with PBS in the sample control group.
The inhibitory rate of the sample against AChE activity is calculated by the following formula: Inhibitory rate = [1−(Asample−Asample control)/(Ablank enzyme−Ablank enzyme−free)] × 100% [formula]
The median inhibitory concentration of AChE was calculated by testing inhibitory rates at different sample concentrations. […] Table 3 Anti-AChE activity screening method

AChE [2] = target: T1, AChE; test: synergistic effect of combined active components (FIC) by AChE assay method; assay type: biochemical; settings: first compound diluted, added compounds fixed at IC30; unit not in table; read-out: IC Value (Standard Deviation) IC50 (converted)
Procedure: With reference to the method of D. Kaufmann et al. (D. Kaufmann, A.K. Dogra, A. Tahrani, F. Herrmann, M. Wink, Extracts from Traditional Chinese Medicinal Plants Inhibit Acetylcholinesterase, a Known Alzheimer's Disease Target, Molecules, 2016(21): 1161-1177.), each active monomer component was accurately weighed for 1.0 mg and dissolved with acetonitrile-water (3:7) to a concentration of 1 mg/mL. One pharmaceutical component, compound A, was selected and diluted step by step according to 1:1; the concentration of a second pharmaceutical component, compound B, was fixed to IC30; based on a size of a fractional inhibitory concentration (FIC) value, the concentration of compound A was fixed, the concentration of pharmaceutical compound B was changed, and the FIC value was determined.
Fractional effects (FEs) of the two compounds are as follows: FEA = IC50 (A+B)/IC50 (A) [formula] FEB = IC50 (A+B)/IC50 (B) [formula] FIC = FEA + FEB [formula] […]
The IC30 of active compounds A, B and C was calculated using SPSS 21.0 software, compound A was diluted stepwise and added to a 96-well plate, and then compound B with a fixed concentration of IC30 was added to the 96-well plate, which were determined by an AChE assay method, and the FIC value was also determined.
By analogy, all possible combinations were calculated. […]

## COc1ccc2cc3[n+](cc2c1OC)CCc1cc2c(cc1-3)OCO2 [Ber, berberine]
AChE [1]
  pIC50: 5.13
AChE [2]
  IC50: 7.46 µM
